# Molecular target: 5-hydroxytryptamine receptor 2A (Homo sapiens, UniProt P28223)
# Chains of the proteins cited; added tags and fusions are not shown.
# UniProt P28223, whole entry: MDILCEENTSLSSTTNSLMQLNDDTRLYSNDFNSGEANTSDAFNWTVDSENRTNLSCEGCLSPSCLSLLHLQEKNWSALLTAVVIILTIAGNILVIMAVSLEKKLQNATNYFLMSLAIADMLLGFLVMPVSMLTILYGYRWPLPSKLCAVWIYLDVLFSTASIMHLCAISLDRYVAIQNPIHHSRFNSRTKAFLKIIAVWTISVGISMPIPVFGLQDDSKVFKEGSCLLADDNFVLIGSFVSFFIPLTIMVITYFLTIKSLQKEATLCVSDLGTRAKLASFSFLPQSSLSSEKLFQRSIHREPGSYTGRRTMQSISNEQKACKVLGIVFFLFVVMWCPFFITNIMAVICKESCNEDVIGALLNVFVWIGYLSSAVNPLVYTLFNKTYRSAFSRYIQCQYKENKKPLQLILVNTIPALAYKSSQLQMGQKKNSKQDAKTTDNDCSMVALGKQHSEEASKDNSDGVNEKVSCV
# Test: Binding affinity to 5-HT2AR (unknown origin) assessed as inhibition constant
structure (smiles),measurement,value
Clc1cccc(N2CCNCC2)c1 [CHLOROPHENYLPIPERAZINE],Ki,0.032 µM
